The results in this text go back to PubChem BioAssay AID1918 (Vanderbilt High Throughput Screening Facility, 2009).

Protein sequences, listed by entry. Tags and fused reporters are not part of them.
UniProt P48048, whole entry: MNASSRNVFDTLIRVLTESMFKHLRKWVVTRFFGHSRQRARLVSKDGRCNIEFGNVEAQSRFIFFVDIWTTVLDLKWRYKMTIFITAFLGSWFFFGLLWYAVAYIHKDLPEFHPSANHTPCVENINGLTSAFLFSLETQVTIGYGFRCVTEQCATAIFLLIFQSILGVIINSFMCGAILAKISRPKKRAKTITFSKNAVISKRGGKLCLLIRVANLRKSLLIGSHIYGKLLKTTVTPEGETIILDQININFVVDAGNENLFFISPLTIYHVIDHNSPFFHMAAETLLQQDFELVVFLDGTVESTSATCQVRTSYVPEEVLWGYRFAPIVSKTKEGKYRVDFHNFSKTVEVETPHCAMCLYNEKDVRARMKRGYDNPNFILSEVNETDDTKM

This is a selection; strong and weak results do not stand in their true shares. The source made the active and inactive calls.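 How the source made its calls: active means signal ratio slope over the read window, or its plate-corrected B-score, at least 3 SD from the plate mean, either direction; inactive means the rest.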

The assay has as its target ATP-sensitive inward rectifier potassium channel 1 (Homo sapiens) (UniProt P48048). The experiment in a line: ROMK potassium channel modulators, primary screen, cell-based, thallium flux, MLSMR library (AID 1918).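 Further: B-score of the F/F0 ratio slope over 7 to 12 s after thallium.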 Conditions: Tet-inducible ROMK, thallium flux fluorescence; at 10 µM; actives lie on both sides.
Take `CCOC(=O)c1ccc(NP(C)(=O)Oc2cc(C)cc(C)c2)cc1` (configuration not stated): the B-score was inactive: -0.323. The value for `Cc1cc(C)cc(OP(C)(=O)Nc2ccc(C)cc2C)c1` (configuration not stated) was inactive: 0.97. Take `CP(=O)(Nc1cccc(Br)c1)Oc1ccccc1` (configuration not stated): the B-score was inactive: 0.0102. The result for `CCCOc1ccc(NP(C)(=O)Oc2ccc(Cl)cc2)cc1` (configuration not stated) reads inactive: -0.379; that for `CP(=O)(Nc1ccc(SC(F)(F)F)cc1)Oc1ccccc1` (configuration not stated), inactive: -1.03.

As for `O=[N+]([O-])c1cc([N+](=O)[O-])c(-n2nnc3ccccc32)c([N+](=O)[O-])c1`, the B-score was inactive: 0.129. In the case of `Cc1nc2ccc3ccccc3c2s1.O=[N+]([O-])c1cc([N+](=O)[O-])c(O)c([N+](=O)[O-])c1`, the B-score was inactive: -1.09.

On to `CCc1ccc(OP(C)(=O)N2CCN(c3ccc([N+](=O)[O-])cc3)CC2)cc1` (configuration not stated), for which the B-score was inactive: -2.04. For the compound `CP(=O)(Oc1ccccc1)OC(c1ccccc1)C(F)(F)F` (configuration not stated), the B-score is inactive: -0.247. The value for `CP(=O)(Nc1ccc(SC(F)(F)F)cc1)Oc1ccc(Cl)cc1` (configuration not stated) was inactive: -2.08; that for `Cc1cccc(C)c1OP(C)(=O)Nc1ccc(SC(F)(F)F)cc1` (configuration not stated) was inactive: -2.03.

As to `CP(=O)(Nc1ccccn1)Oc1ccc(Cl)cc1` (configuration not stated), the B-score is inactive: -0.191. Take `CP(=O)(Nc1ccccc1Br)Oc1ccccc1` (configuration not stated): the B-score was inactive: -0.164.

As to `COc1ccccc1OP(C)(=O)Nc1ccccc1` (configuration not stated), the B-score is inactive: 0.534.

Regarding `O=[N+]([O-])c1ccc2c(c1)C=Nc1ccccc1O2`, the B-score is active: -4.19.

For the compound `Cc1cccc(C)c1OP(C)(N)=O` (configuration not stated), the B-score was inactive: -1.24. The value for `CC(C)(C)c1ccc(OP(C)(=O)Nc2ccc(SC(F)(F)F)cc2)cc1` (configuration not stated) was inactive: 0.096; that for `Cc1cc(C)cc(OP(C)(N)=O)c1` (configuration not stated) was inactive: 0.665.

Consider `COc1ccc(OP(C)(=O)Nc2cccc(F)c2)cc1` (configuration not stated), for which the B-score was inactive: -0.778. Turning to `COc1ccccc1OP(C)(=O)Nc1cc(Cl)ccc1C` (configuration not stated), the B-score is inactive: -0.457. The result for `Cc1ccc(NP(C)(=O)Oc2ccccc2)c(C)c1` (configuration not stated) reads inactive: 0.031; that for `CCOC(=O)c1ccc(NP(C)(=O)Oc2ccccc2)cc1` (configuration not stated), inactive: -0.571; that for `CCN(CC)CCCOC(=O)C(O)(c1ccccc1)c1ccccc1`, inactive: -0.0876.

Consider `COc1ccc(OP(C)(=O)Nc2ccccn2)cc1` (configuration not stated), for which the B-score was inactive: 1.66. The result for `COc1ccccc1OP(C)(=O)Nc1ccc(Br)cc1` (configuration not stated) reads inactive: 1.3; that for `CP(=O)(Nc1ccccn1)Oc1ccccc1` (configuration not stated), inactive: -0.493. For the compound `O=[N+]([O-])c1cc([N+](=O)[O-])c(Nc2ccccn2)c([N+](=O)[O-])c1`, the B-score is inactive: 0.0377. Turning to `COc1ccc(OP(C)(=O)Nc2ccccc2Br)cc1` (configuration not stated), the B-score was inactive: 0.0528. The result for `Cc1cc(C)cc(OP(C)(=O)Nc2cccc(C(F)(F)F)c2)c1` (configuration not stated) reads inactive: -0.444; that for `CP(=O)(Nc1ccc(Cl)cc1Cl)Oc1ccccc1` (configuration not stated), inactive: 0.197. Turning to `CP(=O)(OCCOc1ccccc1)OCCOc1ccccc1`, the B-score was inactive: 0.604. The value for `CCOC(=O)c1ccc(NP(C)(=O)Oc2ccc(Cl)cc2)cc1` (configuration not stated) was inactive: 0.142; that for `CP(=O)(OC12CC3CC(CC(C3)C1)C2)OC12CC3CC(CC(C3)C1)C2` was inactive: -1.81. The value for `O=C(OCCCN1CCCC1)C(O)(c1ccccc1)C1CCCCC1` (configuration not stated) was inactive: 0.152; that for `COc1ccccc1OP(C)(=O)Nc1c(C)n(C)n(-c2ccccc2)c1=O` (configuration not stated) was inactive: 0.234.

As for `CCc1ccc(OP(C)(=O)Nc2cccnc2)cc1` (configuration not stated), the B-score was inactive: 0.815. The result for `CCN(CC)CC(O)COC(=O)C(O)(c1ccccc1)C1CCCCC1` (configuration not stated) reads inactive: -0.502; that for `CN(C)C(=O)c1c([N+](=O)[O-])cc([N+](=O)[O-])cc1[N+](=O)[O-]`, inactive: 0.279. The value for `COc1ccccc1OP(C)(=O)Nc1ccccc1Br` (configuration not stated) was inactive: -0.128. Regarding `CC(C)(C)c1ccc(OP(C)(=O)O)cc1`, the B-score was inactive: 0.43.

On to `CP(=O)(Nc1ccc(SC(F)(F)F)cc1)Oc1ccc(F)cc1` (configuration not stated), for which the B-score was inactive: -0.875. On to `Cc1ccccc1NP(C)(=O)Nc1ccccc1C`, for which the B-score was inactive: 1.76. The result for `COc1ccc(NP(C)(=O)Oc2ccccc2OC)cc1` (configuration not stated) reads inactive: -1.1; that for `COc1ccc(OP(C)(=O)Nc2cccc(Br)c2)cc1` (configuration not stated), inactive: -0.0098. The result for `O=[N+]([O-])c1ccc(OP2(=O)COCCO2)cc1` (configuration not stated) reads inactive: -0.204; that for `O=[N+]([O-])c1cc([N+](=O)[O-])c(NCC2CCS(=O)(=O)C2)c([N+](=O)[O-])c1` (configuration not stated), inactive: -0.339. `CCOC(=O)c1ccc(NP(C)(=O)Oc2ccc(F)cc2)cc1` (configuration not stated): the B-score is inactive: -1.66.

Turning to `COc1ccc(OP(C)(=O)Nc2ccc(SC(F)(F)F)cc2)cc1` (configuration not stated), the B-score was inactive: 0.854. With `CCCCCOc1ccc(NP(C)(=O)Oc2ccc(Cl)cc2Cl)cc1` (configuration not stated), the B-score is inactive: 0.576. As for `CCN(CC)CCCOC(=O)C(O)(c1ccccc1)C1CCCCC1` (configuration not stated), the B-score is inactive: -1.42.

Regarding `CC(C)c1ccc(OP(C)(=O)Nc2ccc(SC(F)(F)F)cc2)cc1` (configuration not stated), the B-score is inactive: 1.91. As to `O=C(OCCN1CCN(CCOCc2ccccc2)CC1)C(O)(c1ccccc1)c1ccccc1`, the B-score was inactive: -2.14.
